{
  "sequences": {"note": "The chains behind the UniProt entries cited, without tags or fusion partners.", "UniProt P41143, whole entry, looked up": "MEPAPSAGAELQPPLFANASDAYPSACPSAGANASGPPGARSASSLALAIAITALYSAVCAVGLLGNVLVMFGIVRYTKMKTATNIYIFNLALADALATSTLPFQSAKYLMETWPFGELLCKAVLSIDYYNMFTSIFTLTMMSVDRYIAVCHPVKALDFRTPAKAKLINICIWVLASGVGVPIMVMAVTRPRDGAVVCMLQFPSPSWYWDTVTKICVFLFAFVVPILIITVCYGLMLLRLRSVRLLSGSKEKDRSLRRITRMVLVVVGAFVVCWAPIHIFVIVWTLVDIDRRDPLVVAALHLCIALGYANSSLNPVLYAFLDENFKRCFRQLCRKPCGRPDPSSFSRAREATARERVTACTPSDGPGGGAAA", "UniProt P35372, whole entry, looked up": "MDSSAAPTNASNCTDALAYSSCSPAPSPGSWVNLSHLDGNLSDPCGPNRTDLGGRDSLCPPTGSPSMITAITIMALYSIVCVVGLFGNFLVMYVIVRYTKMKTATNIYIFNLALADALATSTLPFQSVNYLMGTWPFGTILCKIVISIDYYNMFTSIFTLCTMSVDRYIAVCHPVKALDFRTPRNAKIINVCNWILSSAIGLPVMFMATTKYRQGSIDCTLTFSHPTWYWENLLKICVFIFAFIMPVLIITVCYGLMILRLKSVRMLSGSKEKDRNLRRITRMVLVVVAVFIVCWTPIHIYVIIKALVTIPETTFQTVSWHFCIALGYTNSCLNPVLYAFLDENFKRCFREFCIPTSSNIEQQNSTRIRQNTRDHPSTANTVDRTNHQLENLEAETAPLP"},
  "source": "ChEMBL document CHEMBL1134413",
  "about": "“Effect of N-alkyl and N-alkenyl substituents in noroxymorphindole, 17-substituted-6,7-dehydro-4,5alpha-epoxy-3,14-dihydroxy-6,7:2',3'-indolomorphinans, on opioid receptor affinity, selectivity, and efficacy” (J Med Chem, 2001)",
  "molecular_target": "Opioid receptors; mu & delta (Homo sapiens) (UniProt P41143+P35372)",
  "assay": "Selectivity ratio (mu/delta) of the compound",
  "assay_type": "functional",
  "data": [
    {"molecule": "Cl.Oc1ccc2c3c1O[C@H]1c4[nH]c5ccccc5c4C[C@@]4(O)[C@@H](C2)N(CC2CC2)CC[C@]314", "note": "[NALTRINDOLE HYDROCHLORIDE]", "values": [
      {"measurement": "Ratio", "result": 90}
    ]}
  ]
}
